The numbers were not newly measured in patent US5891887A, “Use of [R-(Z)]-α-(methoxyimino)-α-(1-azabicyclo [2.2.2.]oct-3-yl)acetonitrile to reduce amyloid βA4 formation in alzheimer's disease” (priority 1994, dated 1999), which cites them from elsewhere.

The test system of the data set is m1 and/or m3 receptor subtypes. Conditions: by activation of m1 and/or m3 receptor subtypes; literature.

In the case of `C[N+](C)(C)CCOC(N)=O` [carbachol], the “Production of non-amyloidogenic APP fragments” value was “enhance”.
